By UniProt entry, the sequences of proteins in these tests, tags left out.
UniProt Q02294, whole entry: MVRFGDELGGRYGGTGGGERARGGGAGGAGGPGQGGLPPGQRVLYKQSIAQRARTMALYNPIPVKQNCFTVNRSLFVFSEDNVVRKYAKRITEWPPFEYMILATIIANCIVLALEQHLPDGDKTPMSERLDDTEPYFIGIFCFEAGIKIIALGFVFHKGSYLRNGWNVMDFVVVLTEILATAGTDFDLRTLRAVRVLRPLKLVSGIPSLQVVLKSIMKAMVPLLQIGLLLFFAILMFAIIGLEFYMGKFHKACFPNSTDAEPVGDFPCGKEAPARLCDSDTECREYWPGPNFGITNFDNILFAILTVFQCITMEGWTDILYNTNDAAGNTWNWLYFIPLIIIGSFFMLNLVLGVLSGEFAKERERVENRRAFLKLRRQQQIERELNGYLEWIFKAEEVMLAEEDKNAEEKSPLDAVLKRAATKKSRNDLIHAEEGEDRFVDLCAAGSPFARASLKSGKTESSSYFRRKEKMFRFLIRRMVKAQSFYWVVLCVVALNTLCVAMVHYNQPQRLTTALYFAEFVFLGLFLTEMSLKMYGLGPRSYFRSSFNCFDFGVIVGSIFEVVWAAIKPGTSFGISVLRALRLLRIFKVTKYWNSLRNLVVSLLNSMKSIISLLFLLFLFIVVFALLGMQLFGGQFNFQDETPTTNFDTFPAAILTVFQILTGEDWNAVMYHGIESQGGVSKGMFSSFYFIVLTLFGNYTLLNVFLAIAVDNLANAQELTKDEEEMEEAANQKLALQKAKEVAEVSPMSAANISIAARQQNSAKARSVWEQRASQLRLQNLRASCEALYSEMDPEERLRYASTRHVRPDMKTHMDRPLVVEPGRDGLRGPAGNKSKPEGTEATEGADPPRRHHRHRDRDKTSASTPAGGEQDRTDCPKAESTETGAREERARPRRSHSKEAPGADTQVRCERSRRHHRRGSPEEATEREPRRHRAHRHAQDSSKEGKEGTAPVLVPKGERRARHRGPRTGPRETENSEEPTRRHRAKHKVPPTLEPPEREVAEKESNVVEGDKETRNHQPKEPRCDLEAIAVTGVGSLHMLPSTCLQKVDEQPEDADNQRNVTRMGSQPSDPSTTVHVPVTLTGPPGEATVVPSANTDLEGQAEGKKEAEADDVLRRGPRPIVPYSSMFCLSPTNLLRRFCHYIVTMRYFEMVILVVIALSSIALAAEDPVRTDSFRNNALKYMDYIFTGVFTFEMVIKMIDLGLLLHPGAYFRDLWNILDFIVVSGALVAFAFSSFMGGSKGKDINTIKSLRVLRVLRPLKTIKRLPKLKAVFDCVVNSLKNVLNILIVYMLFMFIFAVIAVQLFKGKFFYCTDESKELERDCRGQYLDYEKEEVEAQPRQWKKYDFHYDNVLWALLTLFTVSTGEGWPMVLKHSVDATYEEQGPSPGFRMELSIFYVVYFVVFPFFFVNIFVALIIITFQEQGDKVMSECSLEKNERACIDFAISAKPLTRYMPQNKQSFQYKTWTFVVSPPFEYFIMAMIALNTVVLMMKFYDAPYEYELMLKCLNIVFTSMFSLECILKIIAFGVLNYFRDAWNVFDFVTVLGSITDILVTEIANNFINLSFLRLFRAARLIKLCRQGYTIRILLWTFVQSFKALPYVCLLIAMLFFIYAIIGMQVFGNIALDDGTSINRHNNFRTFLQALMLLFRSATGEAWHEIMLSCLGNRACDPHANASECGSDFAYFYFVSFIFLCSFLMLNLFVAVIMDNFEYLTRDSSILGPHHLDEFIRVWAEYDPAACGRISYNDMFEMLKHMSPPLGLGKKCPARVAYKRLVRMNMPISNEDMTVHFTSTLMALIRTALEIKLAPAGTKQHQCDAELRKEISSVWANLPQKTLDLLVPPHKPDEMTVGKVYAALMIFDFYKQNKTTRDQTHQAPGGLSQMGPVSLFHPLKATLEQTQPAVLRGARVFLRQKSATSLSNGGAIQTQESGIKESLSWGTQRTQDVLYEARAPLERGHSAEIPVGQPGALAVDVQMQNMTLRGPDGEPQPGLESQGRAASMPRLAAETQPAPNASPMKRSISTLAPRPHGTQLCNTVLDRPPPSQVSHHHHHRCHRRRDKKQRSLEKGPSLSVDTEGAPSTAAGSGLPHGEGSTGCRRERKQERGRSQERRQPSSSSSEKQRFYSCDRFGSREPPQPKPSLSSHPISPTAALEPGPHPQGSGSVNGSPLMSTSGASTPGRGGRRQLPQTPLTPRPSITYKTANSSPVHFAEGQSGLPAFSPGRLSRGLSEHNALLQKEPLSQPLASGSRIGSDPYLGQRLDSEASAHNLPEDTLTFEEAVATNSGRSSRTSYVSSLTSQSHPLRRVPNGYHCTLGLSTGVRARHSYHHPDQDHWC
UniProt P54287, whole entry partner: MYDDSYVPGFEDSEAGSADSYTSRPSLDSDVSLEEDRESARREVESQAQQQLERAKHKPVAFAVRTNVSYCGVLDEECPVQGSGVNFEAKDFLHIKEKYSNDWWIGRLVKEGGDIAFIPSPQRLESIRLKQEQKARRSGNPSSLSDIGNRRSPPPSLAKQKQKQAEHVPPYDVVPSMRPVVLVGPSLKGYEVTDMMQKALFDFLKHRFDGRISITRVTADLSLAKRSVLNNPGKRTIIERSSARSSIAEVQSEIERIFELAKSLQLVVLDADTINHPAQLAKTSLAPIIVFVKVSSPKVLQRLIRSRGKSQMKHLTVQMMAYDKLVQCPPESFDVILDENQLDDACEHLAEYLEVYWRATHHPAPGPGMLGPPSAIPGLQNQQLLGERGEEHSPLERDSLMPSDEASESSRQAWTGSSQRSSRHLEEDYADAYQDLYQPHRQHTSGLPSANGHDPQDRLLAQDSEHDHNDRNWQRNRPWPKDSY

In patent publication US20080242716A1, “Ion Channel Modulators” (priority 2004, published 2008):

Molecular target: calcium channels (e.g., Cav2.2 subfamily) (Rattus norvegicus, UniProt Q02294)
Assay: Oocyte assay (Xenopus oocyte heterologous expression system)
Type: cell-based
Settings: modulation of calcium channel
Experimental: Representative compounds of the formulae herein are screened for activity against calcium channel targets in an assay essentially as described in Neuron January 1997, 18(11): 153-166, Lin et. al.; J. Neurosci. Jul. 1, 2000,20(13):4768-75, J. Pan and D. Lipsombe; and J. Neurosci., Aug. 15, 2001, 21(16):5944-5951, W. Xu and D. Lipscombe, using Xenopus oocyte heterologeous expression system. The assay is performed on various calcium channels (e.g., Cav2.2subfamily) whereby the modulation of the calcium channel is measured for each compound. Table 2 contains IC50's for representative compounds disclosed in the invention.

- IC50: 3.8 µM
SMILES: Fc1ccc(Cc2nc(CNc3ccc(F)cc3)cn2-c2ccc(Cl)cc2)cc1
